We go through one compound from ChEMBL document CHEMBL4428135, “Varying Chirality Across Nicotinic Acetylcholine Receptor Subtypes: Selective Binding of Quinuclidine Triazole Compounds” (ACS Med Chem Lett, 2016).

Chains of the proteins cited; added tags and fusions are not shown.
UniProt P30926, whole entry: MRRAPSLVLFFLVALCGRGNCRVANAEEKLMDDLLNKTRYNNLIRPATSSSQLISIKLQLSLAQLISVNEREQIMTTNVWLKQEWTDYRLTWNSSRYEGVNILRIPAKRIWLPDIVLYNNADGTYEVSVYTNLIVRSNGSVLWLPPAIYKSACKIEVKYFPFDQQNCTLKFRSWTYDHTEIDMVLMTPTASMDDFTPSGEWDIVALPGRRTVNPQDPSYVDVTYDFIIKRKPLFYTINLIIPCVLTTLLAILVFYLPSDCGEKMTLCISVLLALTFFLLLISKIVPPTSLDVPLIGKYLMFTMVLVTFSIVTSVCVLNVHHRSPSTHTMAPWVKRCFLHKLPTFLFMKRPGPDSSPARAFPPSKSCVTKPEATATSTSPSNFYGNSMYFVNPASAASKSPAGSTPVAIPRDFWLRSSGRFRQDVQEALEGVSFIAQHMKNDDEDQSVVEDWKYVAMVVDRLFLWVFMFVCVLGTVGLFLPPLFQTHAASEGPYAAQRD
UniProt P32297, whole entry: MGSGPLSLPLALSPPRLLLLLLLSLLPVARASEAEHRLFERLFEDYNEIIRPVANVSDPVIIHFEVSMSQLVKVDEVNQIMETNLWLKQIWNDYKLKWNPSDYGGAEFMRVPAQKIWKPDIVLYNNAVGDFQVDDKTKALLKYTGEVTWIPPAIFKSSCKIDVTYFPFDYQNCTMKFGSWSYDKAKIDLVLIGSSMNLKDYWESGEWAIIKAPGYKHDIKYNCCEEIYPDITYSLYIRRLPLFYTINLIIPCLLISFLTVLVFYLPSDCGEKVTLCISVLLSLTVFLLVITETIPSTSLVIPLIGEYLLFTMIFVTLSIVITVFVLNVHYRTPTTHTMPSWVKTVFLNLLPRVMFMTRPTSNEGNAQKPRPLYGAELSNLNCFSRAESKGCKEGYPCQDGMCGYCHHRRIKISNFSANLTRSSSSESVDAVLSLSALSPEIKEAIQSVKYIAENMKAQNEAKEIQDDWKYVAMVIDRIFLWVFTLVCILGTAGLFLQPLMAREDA

For this assay, the target named is Neuronal acetylcholine receptor; alpha3/beta4 (Homo sapiens, UniProt P30926+P32297).

The compound `CN1C2CCCC1CC(Nc1ccccc1Br)C2` (stereo unspecified) gave a Ki of 2.64 nM.

One may read the Ki as the equilibrium dissociation constant of an inhibitor or competing ligand from its target.
